Experimental data from PubChem BioAssay AID588475 (Sanford-Burnham Center for Chemical Genomics, 2011).
This is a selection; strong and weak results do not stand in their true shares. Some structures show a salt or complex split into parts, the way the source records it. Calls of active or inactive are those of the source.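 Rule for the calls: active = inhibition of the ligand-induced calcium signal above about 50% at the single tested concentration (limit read from the data); inactive = the rest.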

assay: blockers of CRF-evoked CRF-R2/CRF-BP calcium response – cell-based, HEK293, calcium dye fluorescence, uHTS, primary screen (AID 588475); details: CRF-induced calcium fluorescence, at 11.8 µM, stronger effect = higher value

Row | Compound | inhibition
1 | Cc1cc(C)cc(OP(C)(=O)Nc2cccc(C(F)(F)F)c2)c1 (stereo not drawn) | inactive: -35.2%
2 | O=C1C(O)=C([N+](=O)[O-])C(=O)C(O)=C1[N+](=O)[O-] | inactive: 2.42%
3 | COc1ccc(OP(C)(=O)Nc2ccccc2Br)cc1 (stereo not drawn) | inactive: -26.3%
4 | COc1ccccc1OP(C)(=O)Nc1ccc(C)c(C)c1 (stereo not drawn) | inactive: -4.81%
5 | CP(=O)(Nc1ccc(Cl)cc1Cl)Oc1ccccc1 (stereo not drawn) | inactive: -12%
6 | CCCCCCCCCCCCCCCC1C[N+](C)(C)CCOP(C)(=O)O1 (stereo not drawn) | inactive: -9.89%
7 | CP(=O)(OCCOc1ccccc1)OCCOc1ccccc1 | inactive: -9.61%
8 | COc1ccccc1OP(C)(=O)Nc1ccc(Br)cc1 (stereo not drawn) | inactive: -10.6%
9 | CN(C)CCOC(=O)C(O)(c1ccccc1)C1CCCC1 (stereo not drawn) | inactive: 8.26%
10 | COc1ccc(OP(C)(=O)Nc2ccccn2)cc1 (stereo not drawn) | inactive: 15.5%
11 | Cc1c(NP(C)(=O)Oc2ccc(C(C)C)cc2)c(=O)n(-c2ccccc2)n1C (stereo not drawn) | inactive: 0.17%
12 | O=[N+]([O-])c1cc([N+](=O)[O-])c(Nc2ccccn2)c([N+](=O)[O-])c1 | inactive: 3.62%
13 | CCc1ccc(OP(C)(=O)O)cc1 | inactive: -2.39%
14 | COc1ccccc1OP(C)(=O)Nc1ccc(C)cc1C (stereo not drawn) | inactive: -13.2%
15 | CP(=O)(Nc1ccccn1)Oc1ccccc1 (stereo not drawn) | inactive: -0.84%
16 | COc1ccc(OP(C)(=O)Nc2ccc(Br)cc2)cc1 (stereo not drawn) | inactive: -43.4%
17 | CCN(CC)CC(O)COC(=O)C(O)(c1ccccc1)C1CCCCC1 (stereo not drawn) | inactive: -22.9%
18 | CCc1ccc(OP(C)(=O)Nc2cccnc2)cc1 (stereo not drawn) | inactive: 1.91%
19 | CP(=O)(Oc1ccccc1)N1CCOC1=O (stereo not drawn) | inactive: -4.06%
20 | O=C(OCCCN1CCCC1)C(O)(c1ccccc1)C1CCCCC1 (stereo not drawn) | inactive: -4.34%

Row | Compound | inhibition
21 | COc1ccccc1OP(C)(=O)Nc1c(C)n(C)n(-c2ccccc2)c1=O (stereo not drawn) | inactive: 23.6%
22 | CP(=O)(Nc1ccc(Cl)cc1)Oc1ccc(F)cc1 (stereo not drawn) | inactive: -9.69%
23 | COc1ccccc1OP(C)(=O)Nc1ccccc1Br (stereo not drawn) | inactive: -1.33%
24 | CC(C)(C)c1ccc(OP(C)(=O)O)cc1 | inactive: 3.41%
25 | CN(C)C(=O)c1c([N+](=O)[O-])cc([N+](=O)[O-])cc1[N+](=O)[O-] | inactive: 10.6%
26 | Nc1ccc2c(ccc3cccnc32)n1.O=[N+]([O-])c1cc([N+](=O)[O-])c(O)c([N+](=O)[O-])c1 | inactive: 8.87%
27 | CP(=O)(OC12CC3CC(CC(C3)C1)C2)OC12CC3CC(CC(C3)C1)C2 | inactive: -68.7%
28 | CCOC(=O)c1ccc(NP(C)(=O)Oc2ccc(Cl)cc2)cc1 (stereo not drawn) | inactive: -21.9%
29 | COc1ccc(OP(C)(=O)Nc2cccc(Br)c2)cc1 (stereo not drawn) | inactive: -19.9%
30 | COc1ccc(NP(C)(=O)Oc2ccccc2OC)cc1 (stereo not drawn) | inactive: -82.2%
31 | CN(C)CCOC(=O)C(O)(c1ccccc1)C1CCCCC1 (stereo not drawn) | inactive: 2.55%
32 | Cc1cc(-c2cccc3ccccc23)c(C)cn1.O=[N+]([O-])c1cc([N+](=O)[O-])c(O)c([N+](=O)[O-])c1 | inactive: 27.5%
33 | O=[N+]([O-])c1cc([N+](=O)[O-])c(NCC2CCS(=O)(=O)C2)c([N+](=O)[O-])c1 (stereo not drawn) | inactive: 6.09%
34 | O=[N+]([O-])c1ccc(OP2(=O)COCCO2)cc1 (stereo not drawn) | inactive: -12.2%
35 | Cc1c(C(c2ccc3c(c2)OCO3)c2c(C)n(C)n(-c3ccccc3)c2=O)c(=O)n(-c2ccccc2)n1C.O=[N+]([O-])c1cc([N+](=O)[O-])c(O)c([N+](=O)[O-])c1 | inactive: -2.68%
36 | CP(=O)(Nc1ccc(SC(F)(F)F)cc1)Oc1ccc(F)cc1 (stereo not drawn) | inactive: -25%
37 | CCOP(C)(=S)SCC(=O)NC(C)(CC)C(=O)O (stereo not drawn) | inactive: 1.36%
38 | CP(=O)(Nc1ccc2c(c1)OCCO2)Oc1ccccc1 (stereo not drawn) | inactive: -8.87%
39 | Cc1ccccc1NP(C)(=O)Nc1ccccc1C | inactive: 10.2%
40 | O=[N+]([O-])c1cc([N+](=O)[O-])c(Nc2ccc(Cl)cc2)c([N+](=O)[O-])c1 | active: 67.3%

Row | Compound | inhibition
41 | CC(C)c1ccc(OP(C)(=O)Nc2ccc(SC(F)(F)F)cc2)cc1 (stereo not drawn) | inactive: -37.9%
42 | CP(=O)(Nc1ccccc1F)Oc1ccccc1 (stereo not drawn) | inactive: 2.52%
43 | O=C(OCCN1CCN(CCOCc2ccccc2)CC1)C(O)(c1ccccc1)c1ccccc1 | inactive: 16.9%
44 | O=C(OC1CN2CCC1CC2)c1ccc([N+](=O)[O-])cc1 (stereo not drawn) | inactive: 17.6%
45 | COc1ccc2c(c1O)-c1c(O)c(OC)cc3c1[C@H](C2)[N+](C)(C)CC3.O=[N+]([O-])c1cc([N+](=O)[O-])c([O-])c([N+](=O)[O-])c1[O-] | inactive: 2.88%
46 | COc1ccc(OP(C)(=O)Nc2ccc(SC(F)(F)F)cc2)cc1 (stereo not drawn) | inactive: -20.1%
47 | CCOC(=O)c1ccc(NP(C)(=O)Oc2ccc(F)cc2)cc1 (stereo not drawn) | inactive: 8.7%
48 | CCN(CC)CCCOC(=O)C(O)(c1ccccc1)C1CCCCC1 (stereo not drawn) | inactive: 0.42%
49 | Cc1c([N+](=O)[O-])cc([N+](=O)[O-])c(Br)c1[N+](=O)[O-] | inactive: 12.3%
50 | O=[N+]([O-])c1cc([N+](=O)[O-])c(OC2CCCCC2O)c([N+](=O)[O-])c1 (stereo not drawn) | inactive: -3.01%
51 | CCCCCOc1ccc(NP(C)(=O)Oc2ccc(Cl)cc2Cl)cc1 (stereo not drawn) | inactive: -32.2%
52 | CP(=O)(Nc1ccccc1)Oc1ccc(F)cc1 (stereo not drawn) | inactive: -0.76%
53 | O=C(O)c1cccc(Nc2c([N+](=O)[O-])cc([N+](=O)[O-])cc2[N+](=O)[O-])c1 | inactive: 1.13%
54 | CC1=NCCc2c1[nH]c1ccccc21.O=[N+]([O-])c1cc([N+](=O)[O-])c(O)c([N+](=O)[O-])c1 | inactive: 2.4%
55 | COc1ccccc1OP(C)(=O)Nc1cccc(Br)c1 (stereo not drawn) | inactive: -16.7%
56 | Cc1cc(C)cc(OP(C)(=O)Nc2ccc(C)cc2C)c1 (stereo not drawn) | inactive: -20.6%
57 | CCOC(=O)c1ccc(NP(C)(=O)Oc2cc(C)cc(C)c2)cc1 (stereo not drawn) | inactive: -28.4%
58 | Cc1cc(C)cc(OP(C)(=O)Nc2ccccn2)c1 (stereo not drawn) | inactive: -18.1%
